From patent US9295672B2, “Optically active pyrazolylaminoquinazoline, and pharmaceutical compositions and methods of use thereof” (Ambit Biosciences Corp., priority 2010, dated 2016) come the findings set out here.

This series is described as follows: Pharmacokinetics of racemic hydrochloride and of R- and S-isomers, Tables 3 and 4 (Example 16). To be noted: racemic compound administered IV 1 mg/kg; label = analyte.

For the molecule `Cc1cc(Nc2nc(C(O)c3ccc(F)cc3)nc3ccccc23)n[nH]1` (racemic) [Racemate], the Vz_obs came to 2.88 L/kg.
